Reference: ChEMBL document CHEMBL1131442, “Novel analogues of arachidonylethanolamide (anandamide): affinities for the CB1 and CB2 cannabinoid receptors and metabolic stability” (J Med Chem, 1998)

Chains of the proteins cited; added tags and fusions are not shown.
UniProt P20272, whole entry: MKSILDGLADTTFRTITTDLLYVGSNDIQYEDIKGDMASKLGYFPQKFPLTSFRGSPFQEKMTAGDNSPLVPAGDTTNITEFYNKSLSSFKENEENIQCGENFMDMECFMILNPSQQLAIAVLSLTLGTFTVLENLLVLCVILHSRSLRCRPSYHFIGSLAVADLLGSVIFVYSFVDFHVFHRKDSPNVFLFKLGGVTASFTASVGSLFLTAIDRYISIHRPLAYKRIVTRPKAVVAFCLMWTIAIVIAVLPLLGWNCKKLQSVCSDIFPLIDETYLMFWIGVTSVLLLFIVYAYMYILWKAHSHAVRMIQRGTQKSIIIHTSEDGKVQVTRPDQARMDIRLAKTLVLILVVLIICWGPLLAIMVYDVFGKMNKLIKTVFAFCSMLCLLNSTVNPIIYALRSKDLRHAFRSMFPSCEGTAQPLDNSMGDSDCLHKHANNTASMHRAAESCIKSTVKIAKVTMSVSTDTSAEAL

Key:
Cannabinoid receptor 1 [1] = molecular target: T1, Cannabinoid receptor 1 (Rattus norvegicus, UniProt P20272); experiment: Binding affinity towards cannabinoid receptor 1 from rat forebrain membranes in the absence of phenylmethanesulfonylfluoride (PMSF) using 0.8 nM [3H]CP-55940 as radioligand; set-up: species or system Membrane
In short: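 Rat forebrain membranes were used without PMSF treatment. Incubation was with [3H]CP-55,940 (0.8 nM) and varied analogue concentrations in TME with 0.1% fatty acid-free BSA. Bound ligand was separated by filtration and counted by scintillation. IC50 from nonlinear regression was converted to Ki by Cheng–Prusoff.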

Cannabinoid receptor 1 [2] = molecular target: T1, Cannabinoid receptor 1; experiment: Binding affinity towards cannabinoid receptor 1 from rat forebrain membranes in the presence of phenylmethanesulfonylfluoride (PMSF) using 0.8 nM [3H]CP-55940 as radioligand; set-up: species or system Membrane
In short: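 Rat forebrain membranes were pretreated at 4 °C with 150 μM PMSF in TME for 15 min, brought to 300 μM for another 15 min, then washed three times. Binding used ~30 μg membrane in TME with 0.1% BSA, 0.8 nM [3H]CP-55,940 and varied analogue concentrations, 1 h. Filtration on GF/C was followed by scintillation counting. IC50 came from ≥2 experiments in duplicate, with Ki by Cheng–Prusoff.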

Compound	Ki (Cannabinoid receptor 1 [1]) [µM]	Ki (Cannabinoid receptor 1 [2]) [µM]
CCCCC/C=C\C/C=C\C/C=C\C/C=C\CCCC(=O)NCCO [ANANDAMIDE]	5.81	0.061
CCCCC/C=C\C/C=C\CCCCCCCC(=O)NCCO [LINOLEOYLETHANOLAMIDE]	40	10
CCCCC/C=C\C/C=C\C/C=C\C/C=C\CCCC(=O)N[C@@H](C)CO	0.589	0.309
CCCCC/C=C\C/C=C\C/C=C\C/C=C\CCCC(=O)N[C@H](C)CO [METHANANDAMIDE]	0.0283	0.0179
CCCCC/C=C\C/C=C\CCCCCCCC1=NCCO1	8.09	–
CCCCCCCC/C=C\CCCCCCCC(=O)NCCO [OLEOYLETHANOLAMIDE]	–	20
